Reference: publication PMC2693926

Amino acid sequences for entries named in this document (tags omitted). Residues count along the entry.
UniProt P22303, 32-614 limits assumed: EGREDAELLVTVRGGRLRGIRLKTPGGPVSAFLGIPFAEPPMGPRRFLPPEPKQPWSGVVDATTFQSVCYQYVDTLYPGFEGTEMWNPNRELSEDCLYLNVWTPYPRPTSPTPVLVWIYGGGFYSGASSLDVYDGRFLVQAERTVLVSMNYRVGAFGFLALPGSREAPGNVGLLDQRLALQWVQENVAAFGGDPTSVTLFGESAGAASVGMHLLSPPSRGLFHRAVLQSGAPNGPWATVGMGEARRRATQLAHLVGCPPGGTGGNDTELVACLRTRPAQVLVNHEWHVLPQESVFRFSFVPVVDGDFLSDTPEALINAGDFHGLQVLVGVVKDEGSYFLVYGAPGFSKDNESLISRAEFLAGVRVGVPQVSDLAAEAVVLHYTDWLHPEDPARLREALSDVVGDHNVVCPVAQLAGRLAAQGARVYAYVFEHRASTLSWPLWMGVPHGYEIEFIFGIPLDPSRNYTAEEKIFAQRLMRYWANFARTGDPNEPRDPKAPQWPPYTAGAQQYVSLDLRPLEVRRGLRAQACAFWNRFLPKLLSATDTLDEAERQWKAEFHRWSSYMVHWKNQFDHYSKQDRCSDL
UniProt P21836, 32-614 limits assumed: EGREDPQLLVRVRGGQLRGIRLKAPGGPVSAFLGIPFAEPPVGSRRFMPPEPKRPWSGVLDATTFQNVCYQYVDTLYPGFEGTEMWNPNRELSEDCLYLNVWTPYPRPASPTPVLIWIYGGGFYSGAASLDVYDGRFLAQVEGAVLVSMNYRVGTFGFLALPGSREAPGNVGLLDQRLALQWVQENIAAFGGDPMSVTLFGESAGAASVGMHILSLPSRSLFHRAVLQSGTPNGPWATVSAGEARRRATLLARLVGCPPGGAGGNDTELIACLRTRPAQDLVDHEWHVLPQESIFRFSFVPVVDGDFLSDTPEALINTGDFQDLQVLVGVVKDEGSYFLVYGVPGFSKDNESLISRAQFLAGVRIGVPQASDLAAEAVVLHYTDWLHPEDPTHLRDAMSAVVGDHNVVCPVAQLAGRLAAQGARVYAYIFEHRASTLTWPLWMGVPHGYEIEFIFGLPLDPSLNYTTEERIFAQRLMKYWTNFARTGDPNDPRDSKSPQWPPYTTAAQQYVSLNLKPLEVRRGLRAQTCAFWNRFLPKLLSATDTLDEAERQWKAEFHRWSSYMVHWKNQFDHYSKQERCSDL
UniProt P21836, 32-614 D105E limits assumed: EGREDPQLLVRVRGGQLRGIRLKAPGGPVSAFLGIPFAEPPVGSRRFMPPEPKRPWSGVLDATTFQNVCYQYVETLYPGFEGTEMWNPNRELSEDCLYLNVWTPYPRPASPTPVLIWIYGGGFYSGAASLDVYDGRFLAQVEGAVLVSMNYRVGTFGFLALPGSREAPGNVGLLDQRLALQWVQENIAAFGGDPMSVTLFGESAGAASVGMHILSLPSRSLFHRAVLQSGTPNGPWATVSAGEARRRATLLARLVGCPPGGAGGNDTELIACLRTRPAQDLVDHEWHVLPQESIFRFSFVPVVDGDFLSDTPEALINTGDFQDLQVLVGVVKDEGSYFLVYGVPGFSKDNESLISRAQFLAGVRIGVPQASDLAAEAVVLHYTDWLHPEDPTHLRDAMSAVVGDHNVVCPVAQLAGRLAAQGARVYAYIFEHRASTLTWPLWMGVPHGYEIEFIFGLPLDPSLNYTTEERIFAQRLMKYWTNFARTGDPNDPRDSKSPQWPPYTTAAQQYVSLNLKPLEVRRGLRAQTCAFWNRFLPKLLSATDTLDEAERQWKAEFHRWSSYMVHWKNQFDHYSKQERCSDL

What was measured:
[1] = test system: Tyr337Ala mutant of mAChE; settings: cited from earlier work
Trp286Ala iPrMP-mAChE = settings: Trp286Ala substitution of iPrMP-mAChE; cited from earlier work
[2] = test system: Phe295Leu, Phe297Ile, and Trp86Ala iPrMP-mAChE; settings: substitutions Phe295Leu; cited from earlier work
[3] = test system: Tyr124Glu mutation of iPrMP-mAChE; settings: cited from earlier work
hAChE = hAChE (Homo sapiens, UniProt P22303); settings: substrate acetylthiocholine, mean of 8 determinations±S.D., pH 8.0, 30°C
[4] = biological target: wild-type non-phosphonylated mAChE (Mus musculus, UniProt P21836); settings: substrate acetylthiocholine, mean of 8 determinations±S.D., pH 8.0, 30°C
Asp74Glu mAChE = Asp74Glu mAChE (Mus musculus, UniProt P21836, D105E)
DFP-hAChE = DFP-hAChE (Homo sapiens, UniProt P22303); test: Reactivation kinetics of DFP-inhibited hAChE (discontinuous method); settings: mean±S.D. of 2–4 determinations, buffer condition as reported in [8]

Cl.NC(=O)c1cc[n+](COCN2C=CC=C/C2=C\N=O)cc1.[Cl-]
decrease in affinity [1]: 30 fold
reduction of the bimolecular rate constant [1]: 5.5 fold
reduction of the bimolecular reactivation rate constant (Trp286Ala iPrMP-mAChE): 3 fold
change of the bimolecular rate constant [2]: 0.9- to 1.4 fold
decrease of the bimolecular reactivation rate constant [3]: 36 fold

CC(=O)SCC[N+](C)(C)C
Km (hAChE): 124 µM
Km [4]: 81 µM
Km (Asp74Glu mAChE): 182 µM

NC(=O)c1cc[n+](CCC[n+]2ccc(/C=N/O)cc2)cc1.[Br-].[Br-]
kr hAChE DFP (DFP-hAChE): 0.047 min^−1 and 0.047±0.003 ^c min^−1

Where “and” joins values, the source holds several entries; their conditions need not be identical. Equal entries are not always repeated.
